Values of other authors as cited in patent US20080008772A1, “Narcotic biphasic release compositions and methods for treatment of coughing, sneezing, rhinorrhea, and/or nasal obstruction” (Everett Laboratories, Inc., priority 2006, published 2008).

## COc1ccc2c3c1O[C@H]1C(=O)CC[C@H]4[C@@H](C2)N(C)CC[C@]314.COc1ccc2c3c1O[C@H]1C(=O)CC[C@H]4[C@@H](C2)N(C)CC[C@]314.O.O.O.O.O.O=C(O)C(O)C(O)C(=O)O.O=C(O)C(O)C(O)C(=O)O [Hydrocodone bitartrate, 4,5a-epoxy-3-methoxy-17-methylmorphinan-6-one tartrate (1:1)hydrate (2:5)]
alcohol
  solubility in alcohol: slightly soluble
chloroform
  solubility in chloroform: insoluble
ether
  solubility in ether: insoluble
water
  solubility in water: soluble
